The record followed here is patent publication US20190345146A1, “NITROGEN CONTAINING BICYCLIC DERIVATIVES FOR TREATING PAIN AND PAIN RELATED CONDITIONS” (ESTEVE PHARMACEUTICALS, S.A., priority 2016, published 2019).

Sequences of proteins named here, by UniProt entry; tags and fusion partners are left off. A change or cut given only in a name is not applied to a line headed by its entry. Residues count along the entry.
UniProt P54289, 25-1103 limits assumed: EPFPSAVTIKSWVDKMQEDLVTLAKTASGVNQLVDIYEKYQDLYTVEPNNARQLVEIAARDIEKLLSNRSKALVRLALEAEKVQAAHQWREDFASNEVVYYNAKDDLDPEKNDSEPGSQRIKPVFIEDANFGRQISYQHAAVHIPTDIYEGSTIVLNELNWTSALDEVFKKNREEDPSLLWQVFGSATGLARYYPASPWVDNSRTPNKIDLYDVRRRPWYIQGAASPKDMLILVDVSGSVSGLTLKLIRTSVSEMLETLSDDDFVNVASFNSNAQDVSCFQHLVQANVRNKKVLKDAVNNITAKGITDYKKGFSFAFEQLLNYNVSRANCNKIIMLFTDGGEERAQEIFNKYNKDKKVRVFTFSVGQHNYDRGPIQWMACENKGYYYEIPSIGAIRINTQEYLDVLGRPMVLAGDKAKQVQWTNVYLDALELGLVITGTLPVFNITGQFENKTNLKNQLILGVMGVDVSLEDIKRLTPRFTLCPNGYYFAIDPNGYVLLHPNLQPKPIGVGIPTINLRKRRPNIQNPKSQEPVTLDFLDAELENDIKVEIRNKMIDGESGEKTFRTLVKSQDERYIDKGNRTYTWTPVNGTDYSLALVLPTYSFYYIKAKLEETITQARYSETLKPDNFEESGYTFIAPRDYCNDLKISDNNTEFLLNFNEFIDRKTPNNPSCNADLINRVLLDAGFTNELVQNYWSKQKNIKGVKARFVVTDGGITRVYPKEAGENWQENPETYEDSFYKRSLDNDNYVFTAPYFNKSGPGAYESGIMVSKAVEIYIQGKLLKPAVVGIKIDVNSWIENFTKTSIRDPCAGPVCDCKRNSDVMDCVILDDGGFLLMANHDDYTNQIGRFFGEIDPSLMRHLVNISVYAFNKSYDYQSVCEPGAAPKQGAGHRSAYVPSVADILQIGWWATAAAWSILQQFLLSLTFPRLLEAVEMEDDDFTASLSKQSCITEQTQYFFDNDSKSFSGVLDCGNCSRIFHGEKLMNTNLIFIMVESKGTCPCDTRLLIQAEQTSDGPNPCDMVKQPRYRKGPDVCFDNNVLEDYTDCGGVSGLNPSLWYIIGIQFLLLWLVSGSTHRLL

Some results are limits rather than exact numbers.

The target in this experiment is human α2δ-1 subunit of Cav2.2 calcium channel (Homo sapiens, UniProt P54289). Briefly: Binding assay to human α2δ-1 subunit of Cav2.2 calcium channel ([3H]-Gabapentin). To be noted: read-out: Ki(nM) alpha2delta Hum, Table 1, human α2δ-1 enriched membranes. As for the experimental part: • Binding assay to human α2δ-1 subunit of Cav2.2 calcium channel.
Human α2δ-1 enriched membranes (2.5 μg) were incubated with 15 nM of radiolabeled [3H]-Gabapentin in assay buffer containing Hepes-KOH 10 mM, pH 7.4.
NSB (non specific binding) was measured by adding 10 μM pregabalin. The binding of the test compound was measured at five different concentrations. After 60 min of incubation at 27° C., the binding reaction was terminated by filtering through Multiscreen GF/C (Millipore) presoaked in 0.5% polyethyleneimine in Vacuum Manifold Station, followed by 3 washes with ice-cold filtration buffer containing 50 mM Tris-HCl, pH 7.4.
Filter plates were dried at 60° C. for 1 h and 30 μl of scintillation cocktail were added to each well before radioactivity reading.
Readings were performed in a Trilux 1450 Microbeta radioactive counter (Perkin Elmer). • Binding assay to human norepinephrine transporter (NET).
Consider `CNCCC(Oc1cccc2ncncc12)c1cccs1` (stereo not drawn), for which the Ki lay in the range of 100 to 500 nM. The result for `CNCC[C@H](Oc1cccc2ncn(C)c(=O)c12)c1cccs1` reads greater than 3000 nM; that for `CNCC[C@@H](Oc1cccc2ncn(C)c(=O)c12)c1cccs1`, less than 100 nM.
